This passage reports Kd and stoichiometry N results from article PMC11149620 (Journal of medicinal chemistry, 2024).

For orientation: Kd means the constant that tells how readily two partners part at equilibrium. High values mean a looser complex, low ones a tighter complex. Usually stoichiometry N stands for the number of molecules, sites or subunits per partner or assembly.

The target of assay [1] is T1, Human ATAD2 BRD-containing protein (residues 966–1112) (Homo sapiens, UniProt Q6PL18).
T1 sequence (Q6PL18 966-1112): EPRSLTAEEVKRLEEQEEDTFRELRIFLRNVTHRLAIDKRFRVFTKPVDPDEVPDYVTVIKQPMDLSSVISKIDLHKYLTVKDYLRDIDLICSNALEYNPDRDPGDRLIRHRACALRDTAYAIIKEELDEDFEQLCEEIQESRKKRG
In words: ITC of histone peptides with the ATAD2 BRD.

The target in assay [2] is Human ATAD2B BRD-containing protein (residues 953–1085) (human) (UniProt Q9ULI0). The experiment in a line: ITC. (ITC needs no label: the signal is the heat of the interaction.)
The target of assay [3] is T2, human ATAD2B BRD-containing protein (residues 953–1085) (Homo sapiens, UniProt Q9ULI0).
T2 sequence (Q9ULI0 953-1085): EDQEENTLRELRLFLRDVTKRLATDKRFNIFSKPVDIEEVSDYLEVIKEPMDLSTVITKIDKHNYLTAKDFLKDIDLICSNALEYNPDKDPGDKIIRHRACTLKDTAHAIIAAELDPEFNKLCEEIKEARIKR
In words: ITC of histone peptides with the ATAD2B BRD.

Regarding `CC(=O)NCCCC[C@H](NC(=O)CNC(=O)CNC(=O)[C@@H](NC(=O)[C@H](CCCCN)NC(=O)CNC(=O)[C@H](CCCNC(=N)N)NC(=O)CNC(=O)[C@@H](N)CO)[C@@H](C)O)C(=O)N[C@@H](C)C(=O)N[C@@H](CCCNC(=N)N)C(=O)N[C@@H](C)C(=O)N[C@@H](CCCCN)C(=O)N[C@@H](C)C(=O)N[C@@H](CCCCN)C(=O)N[C@@H](CO)C(=O)N[C@@H](CCCNC(=N)N)C(N)=O` [H2A.XK9ac (1–17)], the Kd in assay [1] worked out at 51.1 ± 5.4 µM. Consider H4K12acK20ac (1–24) (peptide), for which the stoichiometry N in assay [2] turned out to be 1.01.

Turning to H4K5acK8ac (1–24) (peptide), in assay [2], the Kd was 94.6 µM. For `CC(=O)NCCCC[C@H](NC(=O)CNC(=O)CNC(=O)[C@@H](NC(=O)[C@H](CCCCNC(C)=O)NC(=O)CNC(=O)[C@H](CCCNC(=N)N)NC(=O)CNC(=O)[C@@H](N)CO)[C@@H](C)O)C(=O)N[C@@H](C)C(=O)N[C@@H](CCCNC(=N)N)C(=O)N[C@@H](C)C(=O)N[C@@H](CCCCN)C(=O)N[C@@H](C)C(=O)N[C@@H](CCCCN)C(=O)N[C@@H](CO)C(=O)N[C@@H](CCCNC(=N)N)C(N)=O` [H2A.XK5acK9ac (1–17)], the values for the Kd in assay [1] and in assay [3] were 82 ± 11 µM and 66.6 ± 10.5 µM, respectively. The like results for `CC(=O)NCCCC[C@H](NC(=O)CNC(=O)[C@H](CCCNC(=N)N)NC(=O)CNC(=O)[C@@H](N)CO)C(=O)N[C@H](C(=O)NCC(=O)NCC(=O)N[C@@H](CCCCN)C(=O)N[C@@H](C)C(=O)N[C@@H](CCCNC(=N)N)C(=O)N[C@@H](C)C(=O)N[C@@H](CCCCN)C(=O)N[C@@H](C)C(=O)N[C@@H](CCCCN)C(=O)N[C@@H](CO)C(=O)N[C@@H](CCCNC(=N)N)C(N)=O)[C@@H](C)O` [H2A.XK5ac (1–17)] were, in that order, 160 ± 19.4 µM and 28.6 ± 2 µM. `CC(=O)NCCCC[C@H](NC(=O)CNC(=O)CNC(=O)[C@H](C)N)C(=O)N[C@@H](C)C(=O)NCC(=O)N[C@@H](CCCCN)C(=O)N[C@@H](CC(=O)O)C(=O)N[C@@H](CO)C(=O)NCC(=O)N[C@@H](CCCCN)C(=O)N[C@@H](C)C(=O)N[C@@H](CCCCN)C(=O)N[C@H](C(=O)N[C@@H](CCCCN)C(N)=O)[C@@H](C)O` [H2A.ZK4ac (1–15)]: the Kd in assay [3] was 79.3 ± 4.2 µM.
